Measured values published in PMC4315423 (Journal of Medicinal Chemistry, 2014).

Amino acid sequences for entries named in this document (tags omitted).
UniProt P14416, whole entry: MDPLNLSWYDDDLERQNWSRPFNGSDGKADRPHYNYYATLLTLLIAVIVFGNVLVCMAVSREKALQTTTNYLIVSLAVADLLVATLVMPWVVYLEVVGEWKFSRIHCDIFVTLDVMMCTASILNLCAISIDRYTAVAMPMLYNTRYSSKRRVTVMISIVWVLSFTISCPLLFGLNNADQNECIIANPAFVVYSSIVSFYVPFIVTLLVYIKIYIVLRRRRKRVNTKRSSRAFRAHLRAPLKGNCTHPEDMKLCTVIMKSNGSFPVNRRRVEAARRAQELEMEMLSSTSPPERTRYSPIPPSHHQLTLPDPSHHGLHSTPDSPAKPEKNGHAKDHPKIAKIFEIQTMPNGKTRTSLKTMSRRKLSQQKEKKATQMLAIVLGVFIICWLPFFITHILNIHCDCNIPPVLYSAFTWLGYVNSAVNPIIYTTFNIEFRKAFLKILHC

Biological target: D2 DAR (Homo sapiens, UniProt P14416)
Experiment: DiscoveRx D2 β-arrestin assay
Type: cell-based
Settings: fold selectivity, D3 over D2 β-arrestin AC50

Which “D3/D2 (β-arrestin)” value does the source give for CN1C(=O)c2ccccc2[S+]([O-])c2ccc(C(=O)NCCc3cccs3)cc21 (racemic) [compound 44] here?
The value was “greater than 17”.
